Test system: 5α-reductase
Test: In vivo inhibition of 5α-reductase (testosterone-induced prostate hypertrophy in castrated rats)
Set-up: species or system rat
Details: castrated testosterone-implanted rats, once daily for 7 days, ventral prostate weight
Method: The standard test for the antiandrogenic effect in rats was used. Prepuberal 22-day-old male rats were castrated via scrotal incision under light ether anaesthesia. On the seventh day after orchiectomy, androgen replacement was performed via subcutaneous implantation of 1 cm-long Silastic® tube (Dow-Corning, model No. 602-265) filled with a mixture of 25% testosterone and 75% cholesterol. The rats were then treated orally with the tested compounds (7 animals/group), once daily for 7 consecutive days. Twenty four hours after the last dose the rats were sacrificed and the ventral prostate was removed and weighed. Control animals (testosterone controls) received the vehicle (0.5 ml/kg of 0.5% Methocel/0.4% Tween 80). One group of castrated rats was not implanted with testosterone (castrated controls).
The mean percentage of inhibition of the T-induced hypertrophic response of the prostate was calculated according to the following formula:
% inhibition=100×(WTC -WI)/(WTC -WCC)
where WTC, WCC and WI are the mean prostate weight of testosterone control, castrated control and inhibitor treated group, respectively.

Q: How did the “% Inhibition of prostate weight at 3 mg/kg/day p.o.” value turn out when `CC(C)C(NC(=O)[C@H]1CC[C@H]2[C@@H]3CC[C@H]4NC(=O)C=C[C@]4(C)[C@H]3CC[C@]12C)C(=O)C(F)(F)F` (stereo partly drawn) [Compound 7, N-[1,1,1-trifluoro-4-methyl-2-oxopent-3-yl]3-oxo-4-aza-5α-androst-1-ene-17β-carboxamide] was run?
A: 54%

From US5418238A, “17β-substituted 4-aza-5α-androstan-3-one derivatives” (Farmitalia Carlo Erba S.R.L., priority 1992, dated 1995)
